Assays:
[1] = molecular target: GDP-bound NRAS wild-type protein (Homo sapiens, UniProt P01111); assay: Binding to NRAS by surface plasmon resonance (SPR), Single Cycle Kinetics; settings: KD ratio class
[2] = molecular target: GDP-bound HRAS wild-type protein (Homo sapiens, UniProt P01112); assay: Binding to HRAS by surface plasmon resonance (SPR), Single Cycle Kinetics; settings: KD ratio class

Chains of the proteins cited; added tags and fusions are not shown.
UniProt P01111, whole entry: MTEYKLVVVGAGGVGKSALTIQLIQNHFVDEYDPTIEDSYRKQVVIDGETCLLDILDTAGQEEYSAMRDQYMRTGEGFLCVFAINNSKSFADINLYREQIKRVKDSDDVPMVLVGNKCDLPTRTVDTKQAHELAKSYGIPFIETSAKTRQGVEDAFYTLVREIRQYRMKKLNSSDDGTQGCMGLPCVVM
UniProt P01112, whole entry: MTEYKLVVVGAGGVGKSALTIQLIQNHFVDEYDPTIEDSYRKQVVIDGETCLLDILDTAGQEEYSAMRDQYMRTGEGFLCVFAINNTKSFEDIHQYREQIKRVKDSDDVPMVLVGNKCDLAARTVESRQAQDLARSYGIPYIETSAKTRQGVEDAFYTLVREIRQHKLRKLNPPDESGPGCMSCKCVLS

| SMILES | NRAS/KRAS (ratio of KD value for GDP-bound NRAS wild-type protein to KD value for KRAS) [1] | HRAS/KRAS (ratio of KD value for GDP-bound HRAS wild-type protein to KD value for KRAS) [2] |
| --- | --- | --- |
| CCC[C@H]1C(=O)N[C@@H]([C@@H](C)CC)C(=O)N(C)CC(=O)N(C)[C@H]2C/C=C\CCN(C2=O)[C@@H](Cc2ccc(C(F)(F)F)cc2)C(=O)N(C)CC(=O)N[C@@H](CCc2cc(F)c(C(F)(F)F)c(F)c2)C(=O)N2C[C@H](OCC)C[C@H]2C(=O)NC2(CCC2)C(=O)N(C)[C@@H](C(CC)CC)C(=O)N(C)[C@H](C(=O)N(C)C)CC(=O)N1C | AA (a compound having 20 or more is denoted as AA) | A (a compound having 10 or more and less than 20 is denoted as A) |
| CC[C@H](C)[C@@H]1NC(=O)[C@H](CC2CCCC2)N(C)C(=O)C[C@@H](C(=O)N(C)C)N(C)C(=O)[C@H](C2CCCC2)N(C)C(=O)C2(CCC2)NC(=O)[C@@H]2C[C@@H](C(F)(F)F)CN2C(=O)[C@H](CCc2cc(F)c(C(F)(F)F)c(F)c2)NC(=O)CN(C)C(=O)[C@H](Cc2ccc(C(F)(F)F)cc2)N2CC/C=C\C[C@@H](C2=O)N(C)C(=O)CN(C)C1=O | A (a compound having 10 or more and less than 20 is denoted as A) | A (a compound having 10 or more and less than 20 is denoted as A) |
| CCC[C@H]1C(=O)N[C@@H]([C@@H](C)CC)C(=O)N(C)CC(=O)N(C)[C@H]2C/C=C\CCN(C2=O)[C@@H](Cc2ccc(C(F)(F)F)cc2)C(=O)N(C)CC(=O)N[C@@H](CCc2ccc(C(F)(F)F)c(OC)c2)C(=O)N2C[C@H](OCC)C[C@H]2C(=O)NC2(CCC2)C(=O)N(C)[C@@H](C2CCCC2)C(=O)N(C)[C@H](C(=O)N(C)C)CC(=O)N1C | A (a compound having 10 or more and less than 20 is denoted as A) | B (a compound having 3 or more and less than 10 is denoted as B) |
| CC[C@H](C)[C@@H]1NC(=O)[C@H](CC(C)C)N(C)C(=O)C[C@@H](C(=O)N2CCOCC2)N(C)C(=O)[C@H](C2CCCC2)N(C)C(=O)C2(CCC2)NC(=O)[C@@H]2CCCN2C(=O)[C@H](CCc2ccc(C(F)(F)F)c(Cl)c2)NC(=O)CN(C)C(=O)[C@H](Cc2ccc(C(F)(F)F)cc2)N2C[C@H](C)CC[C@@H](C2=O)N(C)C(=O)[C@@H]2CCN2C1=O | A (a compound having 10 or more and less than 20 is denoted as A) | B (a compound having 3 or more and less than 10 is denoted as B) |
| CC[C@H](C)[C@@H]1NC(=O)[C@H](CC2CC2)N(C)C(=O)C[C@@H](C(=O)N(C)C)N(C)C(=O)[C@H](C2CCCC2)N(C)C(=O)C2(CCC2)NC(=O)[C@@H]2C[C@H](C)CN2C(=O)[C@H](CCc2cc(F)c(C(F)(F)F)c(F)c2)NC(=O)CN(C)C(=O)[C@H](Cc2ccc(C(F)(F)F)cc2)N2CC/C=C\C[C@@H](C2=O)N(C)C(=O)CN(C)C1=O | A (a compound having 10 or more and less than 20 is denoted as A) | B (a compound having 3 or more and less than 10 is denoted as B) |
| CCO[C@@H]1C[C@H]2C(=O)NC3(CCC3)C(=O)N(C)[C@@H](C3CCCC3)C(=O)N(C)[C@H](C(=O)N(C)C)CC(=O)N(C)[C@@H](CC(C)C)C(=O)N[C@@H]([C@@H](C)CC)C(=O)N(C)CC(=O)N(C)[C@H]3C/C=C\CCN(C3=O)[C@@H](CC3CCC(F)(F)CC3)C(=O)N(C)CC(=O)N[C@@H](CCc3cc(F)c(C(F)(F)F)c(F)c3)C(=O)N2C1 | A (a compound having 10 or more and less than 20 is denoted as A) | A (a compound having 10 or more and less than 20 is denoted as A) |
| CC[C@H](C)[C@@H]1NC(=O)[C@H](CC2CC2)N(C)C(=O)C[C@@H](C(=O)N(C)C)N(C)C(=O)[C@H](C2CCCC2)N(C)C(=O)C2(CC(C)(C)C2)NC(=O)[C@@H]2C[C@@H](F)CN2C(=O)[C@H](CCc2cc(F)c(C(F)(F)F)c(F)c2)NC(=O)CN(C)C(=O)[C@H](Cc2ccc(C(F)(F)F)cc2)N2CC/C=C\C[C@@H](C2=O)N(C)C(=O)CN(C)C1=O | A (a compound having 10 or more and less than 20 is denoted as A) | A (a compound having 10 or more and less than 20 is denoted as A) |
| CCO[C@@H]1C[C@H]2C(=O)NC3(CCC3)C(=O)N(C)[C@@H](C3CCCC3)C(=O)N(C)[C@H](C(=O)N(C)C)CC(=O)N(C)[C@@H](CC(C)C)C(=O)N[C@@H]([C@@H](C)CC)C(=O)N(C)CC(=O)N(C)[C@H]3C/C=C\CCN(C3=O)[C@@H](CC3CCCCC3)C(=O)N(C)CC(=O)N[C@@H](CCc3cc(F)c(C(F)(F)F)c(F)c3)C(=O)N2C1 | A (a compound having 10 or more and less than 20 is denoted as A) | A (a compound having 10 or more and less than 20 is denoted as A) |
| CCO[C@@H]1C[C@H]2C(=O)NC3(CC(F)(F)C3)C(=O)N(C)[C@@H](C3CCCC3)C(=O)N(C)[C@H](C(=O)N(C)C)CC(=O)N(C)[C@@H](CC)C(=O)N[C@@H]([C@@H](C)CC)C(=O)N(C)CC(=O)N(C)[C@H]3C/C=C\CCN(C3=O)[C@@H](Cc3ccc(C(F)(F)F)cc3)C(=O)N(C)CC(=O)N[C@@H](CCc3cc(F)c(C(F)(F)F)c(F)c3)C(=O)N2C1 | A (a compound having 10 or more and less than 20 is denoted as A) | A (a compound having 10 or more and less than 20 is denoted as A) |
| CC[C@H](C)[C@@H]1NC(=O)[C@H](CC2CC2)N(C)C(=O)C[C@@H](C(=O)N2CCCC2)N(C)C(=O)[C@H](C2CCCC2)N(C)C(=O)C2(CCCC2)NC(=O)[C@@H]2C[C@@H](F)CN2C(=O)[C@H](CCc2cc(F)c(C(F)(F)F)c(F)c2)NC(=O)CN(C)C(=O)[C@H](Cc2ccc(C(F)(F)F)cc2)N2CC/C=C\C[C@@H](C2=O)N(C)C(=O)CN(C)C1=O | A (a compound having 10 or more and less than 20 is denoted as A) | A (a compound having 10 or more and less than 20 is denoted as A) |
| CCO[C@@H]1C[C@H]2C(=O)NC3(CCC3)C(=O)N(C)[C@@H](C3CCCC3)C(=O)N(C)[C@H](C(=O)N3CCCCC3)CC(=O)N(C)[C@@H](CC(F)F)C(=O)N[C@@H]([C@@H](C)CC)C(=O)N(C)CC(=O)N(C)[C@H]3C/C=C\CCN(C3=O)[C@@H](Cc3ccc(C(F)(F)F)cc3)C(=O)N(C)CC(=O)N[C@@H](CCc3cc(F)c(C(F)(F)F)c(F)c3)C(=O)N2C1 | AA (a compound having 20 or more is denoted as AA) | A (a compound having 10 or more and less than 20 is denoted as A) |
| CCO[C@@H]1C[C@H]2C(=O)NC3(CCC3)C(=O)N(C)[C@@H](C3CCCC3)C(=O)N(C)[C@H](C(=O)N(C)C)CC(=O)N(C)[C@@H](CC)C(=O)N[C@@H]([C@@H](C)CC)C(=O)N(C)CC(=O)N(C)[C@H]3C/C=C\CCN(C3=O)[C@@H](Cc3ccc(C(F)(F)F)cc3)C(=O)N(C)CC(=O)N[C@@H](CCc3ccc(C(F)(F)F)c(OC)c3)C(=O)N2C1 | A (a compound having 10 or more and less than 20 is denoted as A) | A (a compound having 10 or more and less than 20 is denoted as A) |
| CCO[C@@H]1C[C@H]2C(=O)NC3(CCC3)C(=O)N(C)[C@@H](C3CCCC3)C(=O)N(C)[C@H](C(=O)N(C)C)CC(=O)N(C)[C@@H](CC)C(=O)N[C@@H]([C@@H](C)CC)C(=O)N(C)CC(=O)N(C)[C@H]3C/C=C\CCN(C3=O)[C@@H](CC3CCC(F)(F)CC3)C(=O)N(C)CC(=O)N[C@@H](CCc3cc(F)c(C(F)(F)F)c(F)c3)C(=O)N2C1 | A (a compound having 10 or more and less than 20 is denoted as A) | A (a compound having 10 or more and less than 20 is denoted as A) |
| CCO[C@@H]1C[C@H]2C(=O)NC3(COC3)C(=O)N(C)[C@@H](C3CCCC3)C(=O)N(C)[C@H](C(=O)N(C)C)CC(=O)N(C)[C@@H](CC)C(=O)N[C@@H]([C@@H](C)CC)C(=O)N(C)CC(=O)N(C)[C@H]3C/C=C\CCN(C3=O)[C@@H](Cc3ccc(C(F)(F)F)cc3)C(=O)N(C)CC(=O)N[C@@H](CCc3cc(F)c(C(F)(F)F)c(F)c3)C(=O)N2C1 | A (a compound having 10 or more and less than 20 is denoted as A) | B (a compound having 3 or more and less than 10 is denoted as B) |
| CCO[C@@H]1C[C@H]2C(=O)NC3(CCC3)C(=O)N(C)[C@@H](C3CCCC3)C(=O)N(C)[C@H](C(=O)N(C)C)CC(=O)N(C)[C@@H](CC3CCCC3)C(=O)N[C@@H]([C@@H](C)CC)C(=O)N(C)CC(=O)N(C)[C@H]3C/C=C\CCN(C3=O)[C@@H](Cc3ccc(F)cc3)C(=O)N(C)CC(=O)N[C@@H](CCc3cc(F)c(C(F)(F)F)c(F)c3)C(=O)N2C1 | A (a compound having 10 or more and less than 20 is denoted as A) | B (a compound having 3 or more and less than 10 is denoted as B) |
| CC[C@H](C)[C@@H]1NC(=O)[C@H](CC2CC2)N(C)C(=O)C[C@@H](C(=O)N(C)C)N(C)C(=O)[C@H](C2CCCC2)N(C)C(=O)C2(CCC2)NC(=O)[C@@H]2CC(F)(F)CN2C(=O)[C@H](CCc2cc(F)c(C(F)(F)F)c(F)c2)NC(=O)CN(C)C(=O)[C@H](Cc2ccc(C(F)(F)F)cc2)N2CC/C=C\C[C@@H](C2=O)N(C)C(=O)CN(C)C1=O | A (a compound having 10 or more and less than 20 is denoted as A) | A (a compound having 10 or more and less than 20 is denoted as A) |
